Data from patent publication US7192924B2, “Corticotropin releasing factor 2 receptor agonists” (priority 2002, dated 2007).
Like-named read-outs stand apart in the source and are kept apart here.

Legend:
[1] = molecular target: T1, CRF2R (Homo sapiens, UniProt Q13324); test: CRF2R agonist activity (EC50, Emax), called comparative CRF binding; type: cell-based
T1 sequence (Q13324 1-411): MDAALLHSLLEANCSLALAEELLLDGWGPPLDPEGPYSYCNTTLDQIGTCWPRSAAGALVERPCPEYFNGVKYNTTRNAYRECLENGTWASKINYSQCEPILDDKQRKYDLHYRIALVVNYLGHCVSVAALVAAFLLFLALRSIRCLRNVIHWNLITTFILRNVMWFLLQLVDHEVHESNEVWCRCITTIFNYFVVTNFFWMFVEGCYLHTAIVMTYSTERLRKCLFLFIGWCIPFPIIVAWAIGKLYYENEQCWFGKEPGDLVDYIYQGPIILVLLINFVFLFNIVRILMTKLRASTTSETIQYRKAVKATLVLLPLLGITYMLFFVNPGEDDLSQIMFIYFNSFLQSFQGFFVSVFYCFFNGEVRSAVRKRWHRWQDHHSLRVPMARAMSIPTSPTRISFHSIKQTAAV
How it was run: (§1)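 Cells expressing only CRF1R or only CRF2R (or recombinant receptor) are contacted with peptide or vehicle control. Receptor activation is read as cAMP induction, measured in cell lysates or via a cAMP-responsive-element reporter gene such as luciferase.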

[2] = molecular target: T2, CRF1R (Homo sapiens, UniProt P34998); test: CRF1R agonist activity (EC50, Emax), called comparative CRF binding; type: cell-based
T2 sequence (P34998 24-415): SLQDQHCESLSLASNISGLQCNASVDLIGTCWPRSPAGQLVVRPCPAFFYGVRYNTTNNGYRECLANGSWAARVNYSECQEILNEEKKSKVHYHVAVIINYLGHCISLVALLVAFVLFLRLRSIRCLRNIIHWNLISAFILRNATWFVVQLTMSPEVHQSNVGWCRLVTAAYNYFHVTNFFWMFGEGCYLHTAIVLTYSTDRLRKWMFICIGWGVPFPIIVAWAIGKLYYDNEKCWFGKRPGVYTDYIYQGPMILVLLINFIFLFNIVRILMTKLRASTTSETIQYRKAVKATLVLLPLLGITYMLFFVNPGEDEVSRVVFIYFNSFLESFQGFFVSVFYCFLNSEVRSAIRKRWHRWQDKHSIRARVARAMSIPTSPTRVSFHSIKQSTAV
How it was run: as §1

## CC[C@H](C)[C@H](NC(=O)[C@H](CCCNC(=N)N)NC(=O)[C@H](C)NC(=O)[C@H](CC(C)C)NC(=O)[C@H](CC(C)C)NC(=O)[C@H](CCCNC(=N)N)NC(=O)[C@H](C)NC(=O)[C@H](CC(N)=O)NC(=O)[C@H](CC(N)=O)NC(=O)[C@H](C)NC(=O)[C@H](C)NC(=O)[C@H](CCC(N)=O)NC(=O)[C@H](CCC(N)=O)NC(=O)[C@H](CCCCN)NC(=O)[C@H](CCC(=O)O)NC(=O)[C@H](CCCCN)NC(=O)[C@H](CCC(=O)O)NC(=O)[C@H](CCC(N)=O)NC(=O)[C@H](CCCCN)NC(=O)[C@H](CCC(=O)O)NC(=O)[C@@H](NC(=O)[C@H](CCC(=O)O)NC(=O)[C@@H](NC(=O)[C@@H](NC(=O)[C@H](CCCCN)NC(=O)[C@H](CCCNC(=N)N)NC(=O)[C@H](CC(C)C)NC(=O)[C@H](CC(C)C)NC(=O)[C@H](CCC(N)=O)NC(=O)[C@H](Cc1ccc(O)cc1)NC(=O)[C@@H]1CCCN1C(=O)[C@@H](NC(=O)[C@H](CC(=O)O)NC(=O)[C@@H](NC(=O)[C@H](CO)NC(=O)[C@@H](NC(=O)[C@@H]1CCCN1C(=O)[C@@H]1CCCN1C(=O)CNC(=O)[C@@H]1CCC(=O)N1)[C@@H](C)CC)[C@@H](C)CC)C(C)C)C(C)C)[C@@H](C)CC)[C@@H](C)CC)C(N)=O [compound 375]
[1]
  EC50: 11.5 nM
[2]
  EC50: ≥ 1000 nM

## CC[C@H](C)[C@H](NC(=O)[C@@H](NC(=O)[C@H](CC(=O)O)NC(=O)[C@H](CC(C)C)NC(=O)[C@H](CC(C)C)NC(=O)[C@H](CCCNC(=N)N)NC(=O)[C@H](C)NC(=O)[C@H](CC(N)=O)NC(=O)[C@H](CC(N)=O)NC(=O)[C@H](C)NC(=O)[C@H](C)NC(=O)[C@H](CCC(N)=O)NC(=O)[C@H](CCC(N)=O)NC(=O)[C@H](CCCCN)NC(=O)[C@H](CCC(=O)O)NC(=O)[C@H](CCCCN)NC(=O)[C@H](CCC(=O)O)NC(=O)[C@H](CCC(N)=O)NC(=O)[C@H](CCCCN)NC(=O)[C@H](CCC(=O)O)NC(=O)[C@@H](NC(=O)[C@H](CCC(=O)O)NC(=O)[C@@H](NC(=O)[C@@H](NC(=O)[C@H](CCCCN)NC(=O)[C@H](CCCNC(=N)N)NC(=O)[C@H](CC(C)C)NC(=O)[C@H](CC(C)C)NC(=O)[C@H](Cc1c[nH]cn1)NC(=O)[C@H](Cc1ccc(O)cc1)NC(=O)[C@@H]1CCCN1C(=O)[C@@H](NC(=O)[C@H](CC(=O)O)NC(=O)[C@@H](NC(=O)[C@H](CO)NC(=O)[C@@H](NC(=O)[C@@H]1CCCN1C(=O)[C@@H]1CCCN1C(=O)CNC(=O)[C@@H]1CCC(=O)N1)[C@@H](C)CC)[C@@H](C)CC)C(C)C)C(C)C)[C@@H](C)CC)[C@@H](C)CC)[C@@H](C)O)C(N)=O [compound 376]
[1]
  EC50: 52.5 nM
[2]
  EC50: ≥ 1000 nM

## CC[C@H](C)[C@H](NC(=O)[C@H](CCCNC(=N)N)NC(=O)[C@H](C)NC(=O)[C@H](CC(C)C)NC(=O)[C@H](CC(C)C)NC(=O)[C@H](CCCNC(=N)N)NC(=O)[C@H](C)NC(=O)[C@H](CC(N)=O)NC(=O)[C@H](CC(N)=O)NC(=O)[C@H](C)NC(=O)[C@H](C)NC(=O)[C@H](CCC(N)=O)NC(=O)[C@H](CCC(N)=O)NC(=O)[C@H](CCCCN)NC(=O)[C@H](CCC(=O)O)NC(=O)[C@H](CCCCN)NC(=O)[C@H](CCC(=O)O)NC(=O)[C@H](CCC(N)=O)NC(=O)[C@H](CCCCN)NC(=O)[C@H](CCC(=O)O)NC(=O)[C@@H](NC(=O)[C@H](CCC(=O)O)NC(=O)[C@@H](NC(=O)[C@@H](NC(=O)[C@H](CCCCN)NC(=O)[C@H](CCCNC(=N)N)NC(=O)[C@H](CC(C)C)NC(=O)[C@H](CC(C)C)NC(=O)[C@H](Cc1ccc(O)cc1)NC(=O)[C@@H](NC(=O)[C@@H]1CCCN1C(=O)[C@@H](NC(=O)[C@H](CC(=O)O)NC(=O)[C@@H](NC(=O)[C@H](CO)NC(=O)[C@@H](NC(=O)[C@@H]1CCCN1C(=O)[C@@H]1CCCN1C(=O)CNC(=O)[C@@H]1CCC(=O)N1)[C@@H](C)CC)[C@@H](C)CC)C(C)C)[C@@H](C)CC)C(C)C)[C@@H](C)CC)[C@@H](C)CC)C(N)=O [compound 379]
[1]
  EC50: 70.5 nM
[2]
  EC50: ≥ 1000 nM

## CC[C@H](C)[C@H](NC(=O)[C@@H](NC(=O)[C@H](CC(=O)O)NC(=O)[C@H](CC(C)C)NC(=O)[C@H](CC(C)C)NC(=O)[C@H](CCCNC(=N)N)NC(=O)[C@H](C)NC(=O)[C@H](CC(N)=O)NC(=O)[C@H](CC(N)=O)NC(=O)[C@H](C)NC(=O)[C@H](C)NC(=O)[C@H](CCC(N)=O)NC(=O)[C@H](CCC(N)=O)NC(=O)[C@H](CCCCN)NC(=O)[C@H](CCC(=O)O)NC(=O)[C@H](CCCCN)NC(=O)[C@H](CCC(=O)O)NC(=O)[C@H](CCC(N)=O)NC(=O)[C@H](CCCCN)NC(=O)[C@H](CCC(=O)O)NC(=O)[C@@H](NC(=O)[C@H](CCC(=O)O)NC(=O)[C@@H](NC(=O)[C@@H](NC(=O)[C@H](CCCCN)NC(=O)[C@H](CCCNC(=N)N)NC(=O)[C@H](CC(C)C)NC(=O)[C@H](CC(C)C)NC(=O)[C@H](CCC(N)=O)NC(=O)[C@H](Cc1ccccc1)NC(=O)[C@@H]1CCCN1C(=O)[C@@H](NC(=O)[C@H](CC(=O)O)NC(=O)[C@@H](NC(=O)[C@H](CO)NC(=O)[C@@H](NC(=O)[C@@H]1CCCN1C(=O)[C@@H]1CCCN1C(=O)CNC(=O)[C@@H]1CCC(=O)N1)[C@@H](C)CC)[C@@H](C)CC)C(C)C)C(C)C)[C@@H](C)CC)[C@@H](C)CC)[C@@H](C)O)C(N)=O [compound 382]
[1]; read-out: CRF2R EC50
  EC50: 39.5 nM
[2]; read-out: CRF1R EC50
  EC50: ≥ 1000 nM
